Literature values in patent US10792281B2 (priority 2014, dated 2020).

Settings: approximately one week

CC(C)(O)c1ccccc1CC[C@@H](SCC1(CC(=O)O)CC1)c1cccc(/C=C/c2ccc3ccc(Cl)cc3n2)c1 [montelukast]
doses without clinically relevant side effects (safety studies): up to 900 mg/day
